## Apparent affinities of Ab-91 variants for a coronavirus HR2 peptide

Source: Engelhart et al. 2022 (doi:10.1038/s41597-022-01779-4), MIT Lincoln Laboratory and A-Alpha Bio; data file from the FLAb repository.

Target: peptide PDVDLGDISGINAS, taken from heptad repeat 2 (HR2) of SARS-CoV-2 spike.

The variants keep the light chain, the linker and the frameworks of Ab-91 (scFv order VL, a 15-residue (Gly4Ser)3 linker, VH).
VL: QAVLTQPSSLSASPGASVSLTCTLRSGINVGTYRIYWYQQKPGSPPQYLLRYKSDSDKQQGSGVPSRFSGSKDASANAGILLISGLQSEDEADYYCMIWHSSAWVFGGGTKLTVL
VH: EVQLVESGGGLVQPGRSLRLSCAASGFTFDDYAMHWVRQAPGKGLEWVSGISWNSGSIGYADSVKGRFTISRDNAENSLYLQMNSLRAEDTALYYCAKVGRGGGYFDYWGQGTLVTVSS

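Phage display of a naive human antibody library on the peptide gave the parent. Library AAYL51 holds single substitutions and randomly drawn double and triple substitutions in the CDRs. Affinity was read by AlphaSeq, a pooled yeast mating assay with surface-displayed partners. The frequency of each diploid, read from paired DNA barcodes, reflects how well the two displayed proteins bind. Read counts were normalised to the haploid input and turned into Kd by a linear fit to BCL2-family pairs of known affinity, for each replicate. The assay was run in three technical replicates.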

Substitutions are numbered in sequence along the VH above, starting at 1 (not Kabat).
The read-out is the apparent dissociation constant on a log10 scale (nM): the lower, the stronger.
A mean of the replicates is given; it leaves out those without a signal.
A pair that was not seen in any replicate is written "nd"; this usually means weak binding, but a binder can also be missed.
Background: pairings of library AAYL51 with three empty control strains gave a value in 21% of cases (median 4.54, 5th percentile 3.26). Values in that range, when seen in few replicates, are hard to tell from nonspecific mating. For each scFv, signals with the empty controls are counted beside the result.

| # | changes | mean log10 Kd (nM) | replicates with signal | empty controls |
|---|---|---|---|---|
| 1 | S57P+Y108P | nd | 0 of 3 | 0 of 9 |
| 2 | Y32H+A33W+K65A | nd | 0 of 3 | 1 of 9 |
| 3 | D31H+G50V+G104I | 5.18 | 1 of 3 | 2 of 9 |
| 4 | W53Q+N54W+A61H | 2.76 | 1 of 3 | 0 of 9 |
| 5 | W53Y+V64M | 0.74 | 3 of 3 | 1 of 9 |
| 6 | H35P+G50P+I51A | nd | 0 of 3 | 2 of 9 |
| 7 | G26M+W53D+S57L | 4.81 | 2 of 3 | 5 of 9 |
| 8 | W53N+N54R+F106S | nd | 0 of 3 | 1 of 9 |
| 9 | D30E+Y32N+I51T | nd | 0 of 3 | 0 of 9 |
| 10 | W53Q+V64Y+D107P | 3.35 | 3 of 3 | 4 of 9 |
| 11 | G26H+G59I+G103S | 2.32 | 1 of 3 | 1 of 9 |
| 12 | M34N+K65T | 4.67 | 1 of 3 | 3 of 9 |
| 13 | G102P+G104E+F106S | nd | 0 of 3 | 0 of 9 |
| 14 | G50Q+I51E+G103Q | 5.35 | 1 of 3 | 5 of 9 |
| 15 | I58F+V64W | nd | 0 of 3 | 1 of 9 |
| 16 | W53K+G56D+R101C | nd | 0 of 3 | 0 of 9 |
| 17 | M34E+V64W+K65I | nd | 0 of 3 | 0 of 9 |
| 18 | S55D+R101V+Y105Q | 4.83 | 1 of 3 | 5 of 9 |
| 19 | G26P+F29T+V99H | 3.34 | 1 of 3 | 1 of 9 |
| 20 | T28K+I51W+Y105L | nd | 0 of 3 | 0 of 9 |
| 21 | D31L+S55T | 4.11 | 1 of 3 | 3 of 9 |
| 22 | S55H+G56Q+V99Q | nd | 0 of 3 | 1 of 9 |
| 23 | D30R+S63A+G103W | 3.98 | 1 of 3 | 3 of 9 |
| 24 | R101C+G104V+D107R | 5.56 | 1 of 3 | 3 of 9 |
| 25 | A33L+N54H+V64A | 4.41 | 1 of 3 | 3 of 9 |
| 26 | N54F+S63E | 3.43 | 1 of 3 | 3 of 9 |
| 27 | F27N+G102R | 3.98 | 3 of 3 | 3 of 9 |
| 28 | G26V+R101E+G103F | 4.84 | 1 of 3 | 0 of 9 |
| 29 | A33P+G103C+Y108I | 4.55 | 1 of 3 | 1 of 9 |
| 30 | G103Y+Y105H | nd | 0 of 3 | 0 of 9 |
| 31 | Y32H+S63L+F106H | 5.47 | 2 of 3 | 2 of 9 |
| 32 | Y32R+H35C+I58K | nd | 0 of 3 | 2 of 9 |
| 33 | F29D+A33L+Y105A | nd | 0 of 3 | 2 of 9 |
| 34 | G50D+S55D+K65D | 3.29 | 1 of 3 | 4 of 9 |
| 35 | G103V+G104V+F106S | 2.10 | 3 of 3 | 4 of 9 |
| 36 | T28V+S55Q+G100S | nd | 0 of 3 | 0 of 9 |
| 37 | G26N+M34D+G103L | 4.50 | 2 of 3 | 4 of 9 |
| 38 | F29A+D62L+V99S | 4.96 | 1 of 3 | 8 of 9 |
| 39 | H35P+V99T | 4.40 | 1 of 3 | 0 of 9 |
| 40 | S57Q+I58F+G102P | 5.70 | 1 of 3 | 1 of 9 |
| 41 | G26T+D62T+F106Y | nd | 0 of 3 | 0 of 9 |
| 42 | F27M+W53F+A61T | 1.21 | 3 of 3 | 0 of 9 |
| 43 | T28R+W53D+V99Y | 4.53 | 2 of 3 | 4 of 9 |
| 44 | T28A+D31G+K65Y | 5.27 | 1 of 3 | 5 of 9 |
| 45 | G26M+S52M+V64H | nd | 0 of 3 | 1 of 9 |
| 46 | H35M+N54K+S55L | nd | 0 of 3 | 4 of 9 |
| 47 | G102D+F106A+D107M | nd | 0 of 3 | 0 of 9 |
| 48 | H35P+S55I+V64E | nd | 0 of 3 | 1 of 9 |
| 49 | G26R+I58A | 5.21 | 3 of 3 | 1 of 9 |
| 50 | F27M+A33F+S55A | nd | 0 of 3 | 1 of 9 |
| 51 | S52G+S63V+G102F | 3.28 | 3 of 3 | 4 of 9 |